Laboratory results: ChEMBL document CHEMBL5500411, “Discovery of Dual MER/AXL Kinase Inhibitors as Bifunctional Small Molecules for Inhibiting Tumor Growth and Enhancing Tumor Immune Microenvironment” (J Med Chem, 2024)

By UniProt entry, the sequences of proteins in these tests, tags left out. Where a name states a change or a piece, a line headed by the entry shows the natural chain unless it says otherwise.
UniProt Q16288, whole entry, looked up: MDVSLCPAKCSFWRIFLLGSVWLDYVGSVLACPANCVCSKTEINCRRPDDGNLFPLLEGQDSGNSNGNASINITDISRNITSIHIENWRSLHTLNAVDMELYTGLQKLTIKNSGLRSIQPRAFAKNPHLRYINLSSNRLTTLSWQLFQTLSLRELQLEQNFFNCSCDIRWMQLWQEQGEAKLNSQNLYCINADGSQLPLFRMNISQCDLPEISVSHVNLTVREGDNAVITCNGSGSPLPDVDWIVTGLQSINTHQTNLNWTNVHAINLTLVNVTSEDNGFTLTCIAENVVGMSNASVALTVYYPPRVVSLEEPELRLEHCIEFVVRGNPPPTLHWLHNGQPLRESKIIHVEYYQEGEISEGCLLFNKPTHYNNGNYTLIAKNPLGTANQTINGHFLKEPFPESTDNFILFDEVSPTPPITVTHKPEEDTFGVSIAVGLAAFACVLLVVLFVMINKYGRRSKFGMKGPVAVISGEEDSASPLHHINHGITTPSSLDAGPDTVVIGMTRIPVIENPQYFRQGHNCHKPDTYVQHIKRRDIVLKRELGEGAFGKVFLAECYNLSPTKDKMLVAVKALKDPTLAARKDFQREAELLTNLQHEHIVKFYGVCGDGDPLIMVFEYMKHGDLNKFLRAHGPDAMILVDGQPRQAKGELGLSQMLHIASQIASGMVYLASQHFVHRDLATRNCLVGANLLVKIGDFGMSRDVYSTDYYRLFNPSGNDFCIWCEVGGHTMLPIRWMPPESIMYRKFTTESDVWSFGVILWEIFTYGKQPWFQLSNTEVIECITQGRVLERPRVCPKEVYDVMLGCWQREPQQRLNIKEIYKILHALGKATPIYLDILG
UniProt P36888, whole entry: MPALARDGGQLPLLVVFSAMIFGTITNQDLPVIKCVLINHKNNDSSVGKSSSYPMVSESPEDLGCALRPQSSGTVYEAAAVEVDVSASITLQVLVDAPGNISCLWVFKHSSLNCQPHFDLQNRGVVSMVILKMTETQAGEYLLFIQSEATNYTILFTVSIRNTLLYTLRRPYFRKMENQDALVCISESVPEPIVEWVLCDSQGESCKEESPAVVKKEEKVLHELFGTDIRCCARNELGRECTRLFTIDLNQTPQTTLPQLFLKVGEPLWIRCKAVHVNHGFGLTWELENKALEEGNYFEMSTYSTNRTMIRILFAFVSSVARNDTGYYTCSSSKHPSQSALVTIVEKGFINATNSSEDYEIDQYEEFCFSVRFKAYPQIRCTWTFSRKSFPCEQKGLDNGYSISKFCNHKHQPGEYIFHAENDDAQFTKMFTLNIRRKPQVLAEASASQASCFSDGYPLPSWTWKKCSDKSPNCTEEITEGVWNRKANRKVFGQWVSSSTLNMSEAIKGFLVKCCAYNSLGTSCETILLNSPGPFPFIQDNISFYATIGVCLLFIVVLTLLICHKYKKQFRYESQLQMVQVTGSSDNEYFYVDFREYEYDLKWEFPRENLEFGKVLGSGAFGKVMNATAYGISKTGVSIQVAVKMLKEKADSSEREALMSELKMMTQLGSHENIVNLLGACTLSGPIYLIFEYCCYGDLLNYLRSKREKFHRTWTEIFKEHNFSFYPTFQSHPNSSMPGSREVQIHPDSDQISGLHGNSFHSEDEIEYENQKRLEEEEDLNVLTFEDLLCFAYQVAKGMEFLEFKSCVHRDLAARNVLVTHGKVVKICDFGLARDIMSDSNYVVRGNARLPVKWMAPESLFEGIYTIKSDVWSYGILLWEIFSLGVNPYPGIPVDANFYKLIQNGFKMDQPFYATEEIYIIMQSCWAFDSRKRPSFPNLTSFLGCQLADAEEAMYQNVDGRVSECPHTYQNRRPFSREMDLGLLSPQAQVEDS
UniProt P10721, whole entry: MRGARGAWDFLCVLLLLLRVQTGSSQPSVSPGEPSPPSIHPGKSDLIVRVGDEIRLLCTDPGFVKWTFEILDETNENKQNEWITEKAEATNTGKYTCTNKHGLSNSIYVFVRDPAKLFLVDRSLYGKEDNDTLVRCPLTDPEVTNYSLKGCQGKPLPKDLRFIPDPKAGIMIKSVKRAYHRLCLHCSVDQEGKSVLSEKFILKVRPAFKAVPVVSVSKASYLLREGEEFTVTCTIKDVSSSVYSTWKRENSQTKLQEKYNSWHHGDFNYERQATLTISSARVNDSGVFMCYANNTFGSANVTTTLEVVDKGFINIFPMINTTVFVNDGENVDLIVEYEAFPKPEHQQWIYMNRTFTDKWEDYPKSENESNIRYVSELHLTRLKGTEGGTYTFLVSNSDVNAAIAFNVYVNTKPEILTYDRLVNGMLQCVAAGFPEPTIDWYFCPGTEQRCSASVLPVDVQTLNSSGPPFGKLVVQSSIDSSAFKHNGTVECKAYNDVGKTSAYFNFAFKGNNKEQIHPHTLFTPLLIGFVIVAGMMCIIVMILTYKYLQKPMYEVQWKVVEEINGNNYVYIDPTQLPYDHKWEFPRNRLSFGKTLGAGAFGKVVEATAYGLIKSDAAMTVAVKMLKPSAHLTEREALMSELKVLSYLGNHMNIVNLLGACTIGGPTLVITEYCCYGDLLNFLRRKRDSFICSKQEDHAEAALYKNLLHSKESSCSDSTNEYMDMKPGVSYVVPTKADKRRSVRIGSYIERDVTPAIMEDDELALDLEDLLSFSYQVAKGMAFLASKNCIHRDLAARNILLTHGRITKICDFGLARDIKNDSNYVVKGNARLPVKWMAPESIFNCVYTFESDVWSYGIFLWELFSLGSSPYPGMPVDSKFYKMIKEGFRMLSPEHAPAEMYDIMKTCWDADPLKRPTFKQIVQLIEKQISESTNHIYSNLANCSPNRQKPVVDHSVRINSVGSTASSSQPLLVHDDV
UniProt P04629: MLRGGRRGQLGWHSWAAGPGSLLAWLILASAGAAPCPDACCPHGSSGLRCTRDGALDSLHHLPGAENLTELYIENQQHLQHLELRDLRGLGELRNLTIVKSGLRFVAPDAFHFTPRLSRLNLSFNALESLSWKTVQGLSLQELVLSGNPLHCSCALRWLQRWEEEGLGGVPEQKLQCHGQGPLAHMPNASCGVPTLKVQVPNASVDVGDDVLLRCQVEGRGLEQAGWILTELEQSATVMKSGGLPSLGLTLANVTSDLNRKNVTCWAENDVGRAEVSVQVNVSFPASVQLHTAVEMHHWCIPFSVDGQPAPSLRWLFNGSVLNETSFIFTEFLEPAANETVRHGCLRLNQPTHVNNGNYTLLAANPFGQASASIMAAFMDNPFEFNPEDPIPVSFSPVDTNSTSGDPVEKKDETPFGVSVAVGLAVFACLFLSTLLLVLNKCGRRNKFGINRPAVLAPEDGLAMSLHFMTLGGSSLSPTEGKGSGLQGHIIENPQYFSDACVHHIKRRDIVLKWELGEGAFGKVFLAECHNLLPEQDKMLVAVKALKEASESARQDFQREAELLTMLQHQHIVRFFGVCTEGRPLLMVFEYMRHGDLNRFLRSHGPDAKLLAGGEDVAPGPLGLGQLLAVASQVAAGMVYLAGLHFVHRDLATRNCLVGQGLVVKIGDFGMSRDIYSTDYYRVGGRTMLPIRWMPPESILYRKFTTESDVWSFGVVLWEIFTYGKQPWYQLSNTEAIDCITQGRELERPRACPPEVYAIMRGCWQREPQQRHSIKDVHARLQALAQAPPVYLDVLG
UniProt Q16620, whole entry, looked up: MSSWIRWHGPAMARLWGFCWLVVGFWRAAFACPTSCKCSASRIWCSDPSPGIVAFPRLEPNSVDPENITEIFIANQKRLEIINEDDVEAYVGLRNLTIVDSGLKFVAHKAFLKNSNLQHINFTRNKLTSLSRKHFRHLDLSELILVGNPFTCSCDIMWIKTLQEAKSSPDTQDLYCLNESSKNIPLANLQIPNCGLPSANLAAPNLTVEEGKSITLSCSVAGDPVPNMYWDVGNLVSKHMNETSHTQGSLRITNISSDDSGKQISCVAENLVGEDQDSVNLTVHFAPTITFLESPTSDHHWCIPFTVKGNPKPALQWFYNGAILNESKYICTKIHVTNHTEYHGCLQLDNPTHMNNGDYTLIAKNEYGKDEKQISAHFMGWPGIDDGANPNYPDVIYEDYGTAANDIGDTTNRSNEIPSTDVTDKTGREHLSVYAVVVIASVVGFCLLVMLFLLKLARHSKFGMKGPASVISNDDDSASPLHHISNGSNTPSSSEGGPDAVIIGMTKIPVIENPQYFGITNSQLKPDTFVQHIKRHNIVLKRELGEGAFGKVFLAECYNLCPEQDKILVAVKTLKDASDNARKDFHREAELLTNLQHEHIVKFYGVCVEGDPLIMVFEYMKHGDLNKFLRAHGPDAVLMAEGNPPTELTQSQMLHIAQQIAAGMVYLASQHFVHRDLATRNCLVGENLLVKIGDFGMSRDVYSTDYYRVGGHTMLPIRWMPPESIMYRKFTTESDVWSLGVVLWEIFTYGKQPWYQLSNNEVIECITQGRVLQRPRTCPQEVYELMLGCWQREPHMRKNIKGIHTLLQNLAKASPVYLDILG

Tests used:
[1] = target: NT-3 growth factor receptor (Homo sapiens) (UniProt Q16288); assay: Inhibition of human TRKC at 1 uM by radioactive HotSpot kinase assay
[2] = target: Receptor-type tyrosine-protein kinase FLT3 (Homo sapiens) (UniProt P36888); assay: Inhibition of human FLT3 at 1 uM by radioactive HotSpot kinase assay
[3] = target: Mast/stem cell growth factor receptor Kit (Homo sapiens) (UniProt P10721); assay: Inhibition of human c-KIT at 1 uM by radioactive HotSpot kinase assay
[4] = target: High affinity nerve growth factor receptor (Homo sapiens) (UniProt P04629); assay: Inhibition of human TRKA at 1 uM by radioactive HotSpot kinase assay
[5] = target: BDNF/NT-3 growth factors receptor (Homo sapiens) (UniProt Q16620); assay: Inhibition of human TRKB at 1 uM by radioactive HotSpot kinase assay

inhibition [1]: Active | inhibition [2]: Active | inhibition [3]: Active | inhibition [4]: Active | inhibition [5]: Active
SMILES: CN(C)Cc1cccc(-c2c(-c3cnn(C)c3)oc3ncnc(Oc4ccc(NC(=O)c5cccn(-c6ccc(F)cc6)c5=O)cc4)c23)c1

Activity calls are given as the source filed them. No cut-off for these calls is given here.
